Results taken from ChEMBL document CHEMBL1122801, “Nontricyclic antidepressant agents derived from cis- and trans-1-amino-4-aryltetralins” (J Med Chem, 1984).
Where a name gives a salt, the structure may show the parent alone.

Protein sequences, listed by entry. Tags and fused reporters are not part of them.
UniProt P31652, whole entry: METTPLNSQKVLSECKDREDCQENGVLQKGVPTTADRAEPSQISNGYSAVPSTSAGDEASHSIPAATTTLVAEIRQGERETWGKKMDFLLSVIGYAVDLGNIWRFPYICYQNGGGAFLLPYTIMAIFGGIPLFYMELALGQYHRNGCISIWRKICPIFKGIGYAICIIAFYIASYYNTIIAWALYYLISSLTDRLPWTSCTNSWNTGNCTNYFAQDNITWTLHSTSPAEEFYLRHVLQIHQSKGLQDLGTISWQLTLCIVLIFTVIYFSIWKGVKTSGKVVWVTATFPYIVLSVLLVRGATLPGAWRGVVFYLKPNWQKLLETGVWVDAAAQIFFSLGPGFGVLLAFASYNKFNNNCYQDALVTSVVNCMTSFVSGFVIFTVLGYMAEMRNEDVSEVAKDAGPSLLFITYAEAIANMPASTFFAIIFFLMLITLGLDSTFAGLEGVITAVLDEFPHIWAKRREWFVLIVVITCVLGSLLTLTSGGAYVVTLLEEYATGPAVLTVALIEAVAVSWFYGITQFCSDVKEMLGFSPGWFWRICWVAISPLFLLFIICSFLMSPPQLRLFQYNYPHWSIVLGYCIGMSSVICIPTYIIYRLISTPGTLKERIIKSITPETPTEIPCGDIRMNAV
UniProt P23977, whole entry: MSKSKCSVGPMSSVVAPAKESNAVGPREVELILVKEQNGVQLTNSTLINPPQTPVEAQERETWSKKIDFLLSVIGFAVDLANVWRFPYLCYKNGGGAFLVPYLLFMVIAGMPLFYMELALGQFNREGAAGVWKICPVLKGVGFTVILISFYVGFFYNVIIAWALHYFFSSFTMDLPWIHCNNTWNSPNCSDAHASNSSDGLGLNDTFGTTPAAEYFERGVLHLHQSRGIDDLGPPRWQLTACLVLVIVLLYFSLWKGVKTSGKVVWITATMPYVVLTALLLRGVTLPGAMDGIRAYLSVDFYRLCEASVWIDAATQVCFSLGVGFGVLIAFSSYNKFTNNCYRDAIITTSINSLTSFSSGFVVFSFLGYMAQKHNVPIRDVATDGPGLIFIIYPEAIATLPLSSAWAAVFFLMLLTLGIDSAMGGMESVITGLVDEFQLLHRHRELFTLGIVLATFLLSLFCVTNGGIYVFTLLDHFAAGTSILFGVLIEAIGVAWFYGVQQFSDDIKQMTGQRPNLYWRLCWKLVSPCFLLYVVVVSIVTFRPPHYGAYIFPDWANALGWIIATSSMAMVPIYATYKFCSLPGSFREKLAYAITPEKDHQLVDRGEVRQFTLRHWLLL
UniProt Q9WTR4, whole entry: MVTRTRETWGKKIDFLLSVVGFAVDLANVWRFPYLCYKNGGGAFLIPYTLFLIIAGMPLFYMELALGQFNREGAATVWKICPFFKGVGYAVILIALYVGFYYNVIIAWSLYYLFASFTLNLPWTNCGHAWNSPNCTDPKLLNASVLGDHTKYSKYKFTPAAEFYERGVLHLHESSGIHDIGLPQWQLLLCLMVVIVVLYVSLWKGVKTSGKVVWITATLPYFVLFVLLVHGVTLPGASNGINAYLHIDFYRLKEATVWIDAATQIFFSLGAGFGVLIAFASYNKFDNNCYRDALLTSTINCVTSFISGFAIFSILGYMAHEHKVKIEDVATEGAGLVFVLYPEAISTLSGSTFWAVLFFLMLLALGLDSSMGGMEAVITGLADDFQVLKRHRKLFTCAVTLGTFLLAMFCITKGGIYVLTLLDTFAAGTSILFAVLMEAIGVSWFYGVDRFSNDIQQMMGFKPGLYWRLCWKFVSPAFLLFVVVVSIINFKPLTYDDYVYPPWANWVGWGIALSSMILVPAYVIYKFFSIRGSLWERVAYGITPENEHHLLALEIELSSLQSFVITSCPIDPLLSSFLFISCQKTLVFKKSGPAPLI

Key:
[1] = biological target: Sodium-dependent serotonin transporter (Rattus norvegicus, UniProt P31652); assay type: functional
[2] = biological target: Sodium-dependent dopamine transporter (Rattus norvegicus, UniProt P23977); assay type: functional, tissue-based, Striatum
[3] = biological target: Norepinephrine transporter (Rattus norvegicus, UniProt Q9WTR4); assay type: functional, tissue-based, Hypothalamus

IC50 [3] | SMILES | IC50 [1] | IC50 [2]
 | CN[C@H]1CC[C@@H](c2ccc(Oc3ccccc3)cc2)c2ccccc21 | 9400 nM | 
 | CN[C@H]1CC[C@@H](c2cccc(OC)c2)c2ccccc21 | 760 nM | 
 | CN[C@H]1CC[C@@H](c2ccccc2OC)c2ccccc21 | 4200 nM | 
 | CN[C@@H]1CC[C@@H](c2cccc(OC)c2)c2ccccc21 | 340 nM | 
 | CN[C@@H]1CC[C@@H](c2ccc(Br)cc2)c2ccccc21 | 90 nM | 
 | CCCCOc1ccc([C@@H]2CC[C@@H](NC)c3ccccc32)cc1 | 7000 nM | 6800 nM
 | CN[C@@H]1CC[C@@H](c2ccccc2OC)c2ccccc21 | 4500 nM | 
 | N[C@H]1CC[C@@H](c2ccc(C(F)(F)F)cc2)c2ccccc21 | 5600 nM | 
 | N[C@H]1CC[C@@H](c2cccc(C(F)(F)F)c2)c2ccccc21 | 4100 nM | 
 | N[C@H]1CC[C@@H](c2ccc(Cl)c(Cl)c2)c2ccccc21 | 400 nM | 
 | CN[C@H]1CC[C@@H](c2ccc(Br)cc2)c2ccccc21 | 190 nM | 
 | CN[C@H]1CC[C@@H](c2ccc(F)c(OC)c2)c2ccccc21 | 380 nM | 
 | CCCCOc1ccc([C@@H]2CC[C@H](NC)c3ccccc32)cc1 | 5800 nM | 12500 nM
 | CN[C@@H]1CC[C@@H](c2ccc(Oc3ccccc3)cc2)c2ccccc21 | 12000 nM | 
 | CN(C)[C@H]1CC[C@@H](c2ccccc2)c2ccccc21 | 1600 nM | 
310 nM | CN[C@H]1CC[C@@H](c2ccc(Cl)cc2Cl)c2ccccc21 |  | 

IC50 [3] | SMILES | IC50 [1] | IC50 [2]
 | CN[C@H]1CC[C@@H](c2ccccc2)c2ccccc21 | 3500 nM | 
 | CN[C@H]1CC[C@@H](c2cccc(C(F)(F)F)c2)c2ccccc21 | 250 nM | 
 | CN[C@H]1CC[C@@H](c2ccc(C(F)(F)F)cc2)c2ccccc21 | 820 nM | 
 | CN[C@@H]1CC[C@@H](c2ccc(F)c(OC)c2)c2ccccc21 | 600 nM | 
 | CN(C)[C@@H]1CC[C@@H](c2cccc(C(F)(F)F)c2)c2ccccc21 | 220 nM | 
400 nM | CN(C)[C@H]1CC[C@@H](c2ccc(Cl)c(Cl)c2)c2ccccc21 | 70 nM | 
 | CN(C)[C@H]1CC[C@@H](c2cccc(C(F)(F)F)c2)c2ccccc21 | 190 nM | 
 | CN[C@@H]1CC[C@@H](c2ccccc2)c2ccccc21 (stereo in doubt; 44) [TAMETRALINE] | 840 nM | 
 | CN[C@@H]1CC[C@@H](c2ccccc2)c2ccccc21 (stereo in doubt; 45) [TAMETRALINE] | 14000 nM | 
 | CN[C@H]1CC[C@@H](c2ccccc2)c2ccccc21 (stereo in doubt; 50) | 3500 nM | 
 | CN[C@H]1CC[C@@H](c2ccccc2)c2ccccc21 (stereo in doubt; 51) | 11600 nM | 
 | CN[C@H]1CC[C@@H](c2cccc(C(F)(F)F)c2)c2ccccc21 (stereo in doubt; 56) | 200 nM | 
 | CN[C@H]1CC[C@@H](c2cccc(C(F)(F)F)c2)c2ccccc21 (stereo in doubt; 57) | 3100 nM | 
 | CN1Cc2c(N)cccc2C(c2ccccc2)C1 (centres undefined) [NOMIFENSINE] | 5400 nM | 
 | CN[C@@H]1CC[C@@H](c2ccccc2)c2ccccc21 [TAMETRALINE HYDROCHLORIDE] | 1480 nM | 
